Assay: Therapeutic index, ratio of LD50 for mouse allografted with mouse ADJ/PC6 cells to ED90 for mouse ADJ/PC6 cells allografted in mouse

| Structure (SMILES) | TI |
| --- | --- |
| O=P1(N(CCCl)CCCl)NCC(Br)CO1 (stereo unspecified) | 25 |
| C[C@@H]1CCN[P@@+]([O-])(N(CCCl)CCCl)O1 | 56 |
| O=P1(N(CCCl)CCCl)NCCC(C(F)(F)F)O1 (stereo unspecified) | 29 |
| C[C@H]1CCN[P@@+]([O-])(N(CCCl)CCCl)O1 | 42 |
| C[C@H]1CCO[P@+]([O-])(N(CCCl)CCCl)N1 | 51 |
| C[C@@H]1CCO[P@+]([O-])(N(CCCl)CCCl)N1 | 57 |
